Reference: publication PMC10191403, “The C-terminal 32-mer fragment of hemoglobin alpha is an amyloidogenic peptide with antimicrobial properties” (Cellular and Molecular Life Sciences: CMLS, 2023)

Assays:
[1] = Thioflavin T (ThT) assay of fibril formation; assay type: physicochemical; conditions: formation of ThT positive aggregates
HSV-2 = assay type: cell-based; conditions: serial dilutions of peptides added to ELVIS cells, infected 1 h later with HSV-2; lacZ enzyme activity one day post-infection; ±SD; one (inactive) to three (active) experiments in triplicates

Row | Structure (SMILES) | ThT signal (+/-) [1] | IC50 (antiviral activity, HSV-2) (HSV-2)
1 | CC(C)C[C@H](NC(=O)[C@H](Cc1ccccc1)NC(=O)[C@@H](N)CCCCN)C(=O)N[C@@H](C)C(=O)N[C@@H](CO)C(=O)N[C@H](C(=O)N[C@@H](CO)C(=O)N[C@H](C(=O)N[C@H](C(=O)O)C(C)C)[C@@H](C)O)C(C)C [HBA 128-136] | - | > 130 µg/mL
2 | CC(C)C[C@H](NC(=O)[C@@H](NC(=O)[C@@H](NC(=O)[C@H](CO)NC(=O)[C@@H](NC(=O)[C@H](CO)NC(=O)[C@H](C)NC(=O)[C@H](CC(C)C)NC(=O)[C@@H](N)Cc1ccccc1)C(C)C)[C@@H](C)O)C(C)C)C(=O)O [HBA 129-137] | - | > 130 µg/mL
